Measurements as given in PubChem BioAssay AID2052 (NMMLSC, 2009).
The list shows a part of the results, in another mix than the full data. Some salts and complexes are drawn in separate pieces, as the source files them; their charges need not balance. Active and inactive are the calls of the source.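 The calls were made as follows: active = response, share of CD8 T cells binding vesicles, and their 90th percentile fluorescence all below set limits (cut at about 80% in these data, passing the limit was not always enough); inactive = the rest, inconclusive results apart.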

Test: murine CD8 T cell vesicle adhesion modulation – mouse 2C CD8+ T cells, flow cytometry, primary screen (AID 2052);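 also: values below 100% mean blocked vesicle binding to the CD8+ T cells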
Details: 2C CD8+ T cell-vesicle binding, at 7 µM, stronger effect = lower value
In short: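 material = purified 2C TCR transgenic mouse naive CD8+ T cells | controls = Unloaded micro-vesicles (low), QL9 vesicles with 0.7% DMSO (high) | detection = cytometric PE anti-B7-1 and Alexa647 anti-CD8 signals after 1% paraformaldehyde fixation | incubation = binding step 1.5 h, 37 °C, antibody labelling 20 min, ice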

SMILES | response (vesicle binding)
CN(C)C(=O)OCCc1n(C)cc[n+]1C | inactive: 201%
CC(C)=N/N=C(\N)N[N+](=O)[O-] | inactive: 381%
CN(C)C(=O)c1c([N+](=O)[O-])cc([N+](=O)[O-])cc1[N+](=O)[O-] | inactive: 360%
CC1CCN(C(=O)Oc2c(Cl)cc(Cl)c3cccnc23)CC1 | inactive: 194%
COc1ccccc1OP(C)(=O)Nc1ccccc1Br (stereo unspecified) | inactive: 1020%
Nc1ccc([As](=O)(O)c2ccc(N)cc2)cc1 | inactive: 366%
CC(C)(C)c1ccc(OP(C)(=O)O)cc1 | inactive: 401%
CP(=O)(Nc1ccc(Cl)cc1)Oc1ccc(F)cc1 (stereo unspecified) | inactive: 392%
CCN(/C(=N/P(=O)(N1CCOCC1)N1CCOCC1)N1CCOCC1)c1ccc(OC)cc1 | inactive: 419%
O=C(OCCCN1CCCC1)C(O)(c1ccccc1)C1CCCCC1 (stereo unspecified) | inactive: 254%
CC(=O)N1C2C3N(C(C)=O)C1C1N(C(C)=O)C(C(N1C(C)=O)N3C(C)=O)N2C(C)=O | inactive: 345%
O=[N+]([O-])c1cccc2n[nH]nc12 | inactive: 397%
COc1ccccc1OP(C)(=O)Nc1c(C)n(C)n(-c2ccccc2)c1=O (stereo unspecified) | inactive: 309%
CCc1ccc(OP(C)(=O)Nc2cccnc2)cc1 (stereo unspecified) | inactive: 267%
O=[N+]([O-])c1cc([N+](=O)[O-])c(CCNc2ccccc2)c([N+](=O)[O-])c1 | inactive: 373%
CCc1nc2c(n1)c1c(non1O)c1c2no[n+]1[O-] | inactive: 248%
CP(=O)(Oc1ccccc1)N1CCOC1=O (stereo unspecified) | inactive: 122%
Cc1ccc(NP(=O)(Oc2ccccc2)Oc2ccccc2)nc1 | inactive: 259%
COc1ccc(OP(C)(=O)Nc2ccc(Br)cc2)cc1 (stereo unspecified) | inactive: 201%
COc1ccc(C2=NCC(CBr)S2)cc1 (stereo unspecified) | inactive: 485%
CCN(CC)CC(O)COC(=O)C(O)(c1ccccc1)C1CCCCC1 (stereo unspecified) | inactive: 542%
O=[N+]([O-])c1cccc(NC2=NCC(CBr)S2)c1 (stereo unspecified) | inactive: 859%
O=C(O)CNc1ccc([As](=O)(O)O)cc1 | inactive: 168%
CC(C)(C)C(=O)NC(Sc1ccncn1)C(Cl)(Cl)Cl (stereo unspecified) | inactive: 449%
O=[N+]([O-])c1ncn(CCn2ncnc2[N+](=O)[O-])n1 | inactive: 308%
O=C(Nc1cc([As](=O)(O)O)ccc1O)c1ccccc1 | inactive: 322%

SMILES | response (vesicle binding)
CCOC(=O)c1ccc(NP(C)(=O)Oc2ccc(Cl)cc2)cc1 (stereo unspecified) | inactive: 263%
CP(=O)(OC12CC3CC(CC(C3)C1)C2)OC12CC3CC(CC(C3)C1)C2 | inactive: 214%
Nc1ccc2c(ccc3cccnc32)n1.O=[N+]([O-])c1cc([N+](=O)[O-])c(O)c([N+](=O)[O-])c1 | inactive: 297%
CCN(N=Nc1nonc1N)c1nonc1N | inactive: 303%
CP(=O)(Nc1ccc(Cl)cc1Cl)Oc1ccccc1 (stereo unspecified) | inactive: 216%
CP(=O)(OCCOc1ccccc1)OCCOc1ccccc1 | inactive: 284%
Nc1cccc2ccc([As](=O)(O)O)cc12 | inactive: 129%
Cc1nc2ccc3ccccc3c2o1.O=[N+]([O-])c1cc([N+](=O)[O-])c(O)c([N+](=O)[O-])c1 | inactive: 266%
O=[N+]([O-])c1cc([N+](=O)[O-])c(CCN2CCOCC2)c([N+](=O)[O-])c1 | inactive: 196%
COc1ccccc1OP(C)(=O)Nc1ccc(C)c(C)c1 (stereo unspecified) | inactive: 135%
CN(C(=O)Cc1ccc(Cl)c(Cl)c1)[C@H]1CCCC[C@@H]1N1CCCC1 | inactive: 315%
Cc1ccc(NP(=O)(Oc2ccccc2F)Oc2ccccc2F)nc1 | inactive: 186%
Cc1cc(SC(NC(=O)c2ccc(F)cc2)C(Cl)(Cl)Cl)ncn1 (stereo unspecified) | inactive: 86%
CCOP(=O)(Nc1ccccc1)OCC | inactive: 520%
COc1ccc(OP(C)(=O)Nc2ccccc2Br)cc1 (stereo unspecified) | inactive: 208%
CC(=O)Nc1ccc([As](=O)(O)O)cc1 | inactive: 177%
O=C(O)c1ccccc1[As](=O)(O)O | inactive: 56.7%
O=P(Nc1nc2ccc(Cl)cc2s1)(c1ccccc1)c1ccccc1 | inactive: 479%
Cc1cc(C)cc(OP(C)(=O)Nc2cccc(C(F)(F)F)c2)c1 (stereo unspecified) | inactive: 178%
COc1ccccc1OP(C)(=O)Nc1ccc(C)cc1C (stereo unspecified) | inactive: 405%
CP(=O)(Nc1ccccn1)Oc1ccccc1 (stereo unspecified) | inactive: 240%
CCc1ccc(OP(C)(=O)O)cc1 | inactive: 305%
Nc1cc(N)c2nonc2c1[N+](=O)[O-] | inactive: 637%
Cc1c(NP(C)(=O)Oc2ccc(C(C)C)cc2)c(=O)n(-c2ccccc2)n1C (stereo unspecified) | inactive: 284%
O=[N+]([O-])c1cc([N+](=O)[O-])c(Nc2ccccn2)c([N+](=O)[O-])c1 | inactive: 349%
CC(C)CC(=O)NC(Sc1ccc(Cl)cc1)C(Cl)(Cl)Cl (stereo unspecified) | inactive: 631%

SMILES | response (vesicle binding)
O=C(NC(Sc1ccncn1)C(Cl)(Cl)Cl)c1ccccc1 (stereo unspecified) | inactive: 152%
Cc1c2non([O-])c-2c(C)[n+](=O)[n+]1[O-] | inactive: 499%
Oc1ccccc1CNc1ccccn1 | inactive: 891%
Cc1ccc(OP(=O)(Nc2nccs2)Oc2ccc(C)cc2)cc1 | inactive: 602%
COc1ccccc1OP(=O)(Nc1ccc(C)cn1)Oc1ccccc1OC | inactive: 326%
COc1ccc(OP(C)(=O)Nc2ccccn2)cc1 (stereo unspecified) | inactive: 302%
CN1CCCC(OC(=O)C(c2ccccc2)c2ccccc2)C1 (stereo unspecified) | inactive: 239%
CN(C)CCOC(=O)C(O)(c1ccccc1)C1CCCC1 (stereo unspecified) | inactive: 193%
Clc1ccc(Cl)c(NC2=NCC(CBr)S2)c1 (stereo unspecified) | inactive: 142%
NC(=O)c1cc([N+](=O)[O-])cc([N+](=O)[O-])c1N | inactive: 879%
Cc1ccc(N/C(=N/P(=O)(N2CCOCC2)N2CCOCC2)N2CCOCC2)cc1 | inactive: 230%
CN(C(=O)Cc1ccc(Cl)c(Cl)c1)[C@H]1CCCC[C@H]1N1CCCC1 | inactive: 625%
COc1ccccc1OP(C)(=O)Nc1ccc(Br)cc1 (stereo unspecified) | inactive: 364%
CC(=O)Nc1ccc(Oc2c([N+](=O)[O-])cc([N+](=O)[O-])cc2[N+](=O)[O-])cc1 | inactive: 306%
CC(=O)Nc1ccc([As](=O)(O)O)c(O)c1 | inactive: 233%
COc1ccc2c(c1O)-c1c(O)c(OC)cc3c1[C@H](C2)[N+](C)(C)CC3.O=[N+]([O-])c1cc([N+](=O)[O-])c([O-])c([N+](=O)[O-])c1[O-] | inactive: 338%
O=C(OC1CN2CCC1CC2)c1ccc([N+](=O)[O-])cc1 (stereo unspecified) | inactive: 603%
CC(=O)c1ccc(N2CC2c2ccncc2)cc1 (stereo unspecified) | inactive: 525%
C[C@H]1OP(=O)(Oc2ccccc2)C[C@@H]2O[C@@H]21 (stereo partly specified) | inactive: 492%
C[C@@H]1C=CCP(=O)(Oc2ccccc2)O1 (stereo partly specified) | inactive: 312%
O=C(OCCN1CCN(CCOCc2ccccc2)CC1)C(O)(c1ccccc1)c1ccccc1 | inactive: 151%
Cc1ccccc1CN(C)C(=O)COC(=O)C(O)(c1ccccc1)c1ccccc1 | inactive: 607%
CP(=O)(Nc1ccccc1F)Oc1ccccc1 (stereo unspecified) | inactive: 273%
CC(C)c1ccc(OP(C)(=O)Nc2ccc(SC(F)(F)F)cc2)cc1 (stereo unspecified) | inactive: 243%
CC(C)(C)C(=O)NC(Sc1ccccc1)C(Cl)(Cl)Cl (stereo unspecified) | inactive: 538%
CCOc1ccc(C2=NCC(CBr)S2)cc1 (stereo unspecified) | inactive: 304%

SMILES | response (vesicle binding)
O=P1(Nc2nc3ccc(Cl)cc3s2)COc2ccccc2O1 (stereo unspecified) | inactive: 568%
CP(=O)(Nc1ccccc1)Oc1ccc(F)cc1 (stereo unspecified) | inactive: 618%
CCCCCOc1ccc(NP(C)(=O)Oc2ccc(Cl)cc2Cl)cc1 (stereo unspecified) | inactive: 121%
O=[N+]([O-])c1cc([N+](=O)[O-])c(OC2CCCCC2O)c([N+](=O)[O-])c1 (stereo unspecified) | inactive: 246%
CN(C)C(=O)Oc1noc2ccccc12 | inactive: 1200%
CC(NC(=O)COC(=O)C(O)(c1ccccc1)c1ccccc1)c1ccccc1 (stereo unspecified) | inactive: 192%
Cc1ccccc1OP(=O)(Nc1ccccn1)Oc1ccccc1C | inactive: 950%
CC(=O)NC(SC(=S)N(CC(C)C)CC(C)C)C(Cl)(Cl)Cl (stereo unspecified) | inactive: 298%
Cc1ccc(OP(=O)(Nc2ccccn2)Oc2ccc(C)cc2)cc1 | inactive: 242%
COC(=O)c1cc2c(s1)N=C(c1ccccc1)N(C)P2(=O)N1CCOCC1 (stereo unspecified) | inactive: 210%
CCC(=O)N1C2C3N(C(=O)CC)C1C1N(C(=O)CC)C(C(N1C(=O)CC)N3C(=O)CC)N2C(=O)CC | inactive: 196%
CCN(CC)CCCOC(=O)C(O)(c1ccccc1)C1CCCCC1 (stereo unspecified) | inactive: 211%
O=C(OC1CN2CCC1CC2)c1ccccc1 (stereo unspecified) | inactive: 200%
CCOC(=O)c1ccc(NP(C)(=O)Oc2ccc(F)cc2)cc1 (stereo unspecified) | inactive: 327%
COc1ccc(OP(C)(=O)Nc2ccc(SC(F)(F)F)cc2)cc1 (stereo unspecified) | inactive: 305%
O=C(NC1CCS(=O)(=O)C1)NP(=S)(Oc1ccccc1)Oc1ccccc1 (stereo unspecified) | inactive: 133%
CCNC(=S)/N=C(\N)N[N+](=O)[O-] | inactive: 592%
Cc1ccc(NP(=O)(Oc2cccc(C)c2)Oc2cccc(C)c2)nc1 | inactive: 618%
CCOC(=O)NC(Sc1ccccc1)C(Cl)(Cl)Cl (stereo unspecified) | inactive: 353%
c1ccc(-c2nn[nH]n2)c(-c2nn[nH]n2)c1 | inactive: 289%
C(Cc1nn[nH]n1)Cc1nn[nH]n1 | inactive: 511%
Nc1ccc([As](=O)(O)c2ccc([N+](=O)[O-])cc2)cc1 | inactive: 53.9%
O=C(OC1CN2CCC1CC2)c1cccc(Cl)c1 (stereo unspecified) | inactive: 221%
